Measured values published in ChEMBL document CHEMBL4041516, “SAR study of 5-alkynyl substituted quinazolin-4(3H)-ones as phosphoinositide 3-kinase delta (PI3Kδ) inhibitors” (Eur J Med Chem, 2017).

Key:
Homo sapiens [1] = species on record: Homo sapiens; assay: Selectivity ratio of IC50 for PI3Kgamma (unknown origin) to IC50 for PI3Kdelta (unknown origin)
Homo sapiens [2] = species on record: Homo sapiens; assay: Selectivity ratio of IC50 for PI3Kbeta (unknown origin) to IC50 for PI3Kdelta (unknown origin)
Homo sapiens [3] = species on record: Homo sapiens; assay: Selectivity ratio of IC50 for PI3Kalpha (unknown origin) to IC50 for PI3Kdelta (unknown origin)

Ratio IC50 (Homo sapiens [1]): 24
Ratio IC50 (Homo sapiens [2]): 133
Ratio IC50 (Homo sapiens [3]): 154
SMILES: CC[C@H](Nc1nc(N)nc(N)c1C#N)c1nc2cccc(C#CCCCC(=O)N3CCOCC3)c2c(=O)n1-c1ccccc1
